Results from PubChem BioAssay AID504861 (Broad Institute, 2011).
Only a part is listed here, and it is no random draw. Potency and affinity values are given separately. Calls of active or inactive are those of the source.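 Rule for the calls: active = compounds lowering cell viability signal with fitted half-maximal concentration at most ten times their highest tested concentration; inconclusive = flat fit with 30 to 70% signal loss, or poor fit; inactive = the rest.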

Test: cytotoxicity in HEK293T cells – cell-based, CellTiter-Glo luminescence, cherry-picks, cytotoxicity control for LMP1 NF-kB inhibitor project, dose response (AID 504861)
Conditions: HEK293T viability, CellTiter-Glo ATP luminescence, 48 h; at 26 µM (top of the series)
In the case of `N#C/C(=C\c1ccc(N(CCBr)CCBr)cc1)C(N)=O`, the activity change, negative = cytotoxicity is reported as inactive: -13.9%.
